# Assay results: BindingDB's records for patent US20230340011 (Asteroid Therapeutics, 2023)
# Biological target: T1, Sterol regulatory element-binding protein 2 (Homo sapiens, UniProt Q12772)
# T1 sequence (Q12772 whole entry): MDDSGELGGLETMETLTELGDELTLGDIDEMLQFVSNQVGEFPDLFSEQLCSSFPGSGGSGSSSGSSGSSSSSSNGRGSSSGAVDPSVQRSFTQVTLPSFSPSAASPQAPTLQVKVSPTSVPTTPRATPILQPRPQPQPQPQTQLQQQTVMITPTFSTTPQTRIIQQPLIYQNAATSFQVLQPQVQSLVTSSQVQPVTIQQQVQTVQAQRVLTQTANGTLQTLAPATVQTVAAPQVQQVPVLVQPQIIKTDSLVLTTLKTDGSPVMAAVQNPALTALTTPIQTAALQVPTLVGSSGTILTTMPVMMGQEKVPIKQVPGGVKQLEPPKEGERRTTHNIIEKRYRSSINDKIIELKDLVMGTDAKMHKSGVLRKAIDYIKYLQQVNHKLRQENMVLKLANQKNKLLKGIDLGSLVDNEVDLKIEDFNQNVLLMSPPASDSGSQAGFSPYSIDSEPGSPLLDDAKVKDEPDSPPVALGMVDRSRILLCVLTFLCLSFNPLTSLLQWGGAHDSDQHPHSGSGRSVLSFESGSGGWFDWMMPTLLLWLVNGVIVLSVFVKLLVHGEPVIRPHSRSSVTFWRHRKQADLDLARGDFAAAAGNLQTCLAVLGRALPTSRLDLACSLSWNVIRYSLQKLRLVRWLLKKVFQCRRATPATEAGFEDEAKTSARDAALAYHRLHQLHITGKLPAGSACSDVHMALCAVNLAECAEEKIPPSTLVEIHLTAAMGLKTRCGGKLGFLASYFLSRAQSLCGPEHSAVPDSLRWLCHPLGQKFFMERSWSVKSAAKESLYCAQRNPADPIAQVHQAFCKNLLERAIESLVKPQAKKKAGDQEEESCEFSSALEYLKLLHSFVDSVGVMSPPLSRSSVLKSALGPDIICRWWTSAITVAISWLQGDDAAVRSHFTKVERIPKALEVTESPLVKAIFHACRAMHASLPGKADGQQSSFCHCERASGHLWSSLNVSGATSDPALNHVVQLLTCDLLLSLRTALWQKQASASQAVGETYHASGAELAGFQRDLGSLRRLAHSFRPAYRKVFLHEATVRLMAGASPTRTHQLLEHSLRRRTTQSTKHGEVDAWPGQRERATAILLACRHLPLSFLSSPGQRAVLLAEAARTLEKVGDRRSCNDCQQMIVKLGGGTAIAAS
# Assay: In Vitro Assay-SREBP-2
# Experimental: 10,000 cells/well of the PathHunter U2OS SREBP-2 Nuclear Translocation Cell Line are plated in quadruplicate on 384 well plates in 20 μL of AssayComplete cell plating 5 reagent (CP5-high serum) overnight at 37° C./5% CO2. A dilution series of test compound is added to cells, incubated for 1 hour at 37° C./5% CO2, and U18666A (a known SREBP agonist) is added to a final concentration of 10 μM. The plate is incubated overnight (16 hours) at 37° C./5% CO2. PathHunter Flash detection mix is added to the wells, incubated one hour in the dark, and the plate read on an Envision luminometer.
smiles,measurement,value
"COCCOC(=O)N1CCN(C(=O)CC[C@@H](C)[C@H]2CC[C@H]3[C@@H]4CC=C5C[C@@H](O)CC[C@]5(C)[C@H]4CC[C@]23C)CC1 [US20230340011, Example 424.]",IC50,≤ 250 nM
